Data from patent US8778919B2, “Cyclic anilino—pyridinotriazines” (Janssen Pharmaceutica NV, priority 2005, dated 2014).

Amino acid sequences for entries named in this document (tags omitted). A change or cut given only in a name is not applied to a line headed by its entry.
UniProt P49840, whole entry: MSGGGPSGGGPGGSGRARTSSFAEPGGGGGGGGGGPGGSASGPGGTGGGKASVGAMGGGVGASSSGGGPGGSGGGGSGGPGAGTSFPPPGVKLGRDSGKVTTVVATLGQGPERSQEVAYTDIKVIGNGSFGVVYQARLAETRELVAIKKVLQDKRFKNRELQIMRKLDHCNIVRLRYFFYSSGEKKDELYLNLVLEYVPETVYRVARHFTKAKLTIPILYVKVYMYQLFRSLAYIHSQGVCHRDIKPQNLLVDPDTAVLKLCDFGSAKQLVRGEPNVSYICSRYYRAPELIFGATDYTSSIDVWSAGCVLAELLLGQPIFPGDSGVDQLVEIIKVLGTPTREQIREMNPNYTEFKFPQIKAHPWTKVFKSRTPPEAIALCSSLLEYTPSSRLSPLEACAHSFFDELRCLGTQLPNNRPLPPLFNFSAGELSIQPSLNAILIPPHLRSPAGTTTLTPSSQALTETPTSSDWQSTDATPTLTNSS
UniProt P49841, whole entry: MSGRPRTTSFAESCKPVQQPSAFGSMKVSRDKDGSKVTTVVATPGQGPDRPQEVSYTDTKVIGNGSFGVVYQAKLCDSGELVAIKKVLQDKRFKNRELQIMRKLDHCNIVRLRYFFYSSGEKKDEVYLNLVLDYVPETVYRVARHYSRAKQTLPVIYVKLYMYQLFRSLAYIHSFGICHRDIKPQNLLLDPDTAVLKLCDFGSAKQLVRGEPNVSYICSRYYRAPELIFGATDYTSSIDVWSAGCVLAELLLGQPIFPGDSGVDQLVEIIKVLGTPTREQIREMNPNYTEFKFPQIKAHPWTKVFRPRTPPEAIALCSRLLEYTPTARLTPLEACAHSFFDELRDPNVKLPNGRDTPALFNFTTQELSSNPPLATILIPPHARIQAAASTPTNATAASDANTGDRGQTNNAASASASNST
UniProt O14965, whole entry: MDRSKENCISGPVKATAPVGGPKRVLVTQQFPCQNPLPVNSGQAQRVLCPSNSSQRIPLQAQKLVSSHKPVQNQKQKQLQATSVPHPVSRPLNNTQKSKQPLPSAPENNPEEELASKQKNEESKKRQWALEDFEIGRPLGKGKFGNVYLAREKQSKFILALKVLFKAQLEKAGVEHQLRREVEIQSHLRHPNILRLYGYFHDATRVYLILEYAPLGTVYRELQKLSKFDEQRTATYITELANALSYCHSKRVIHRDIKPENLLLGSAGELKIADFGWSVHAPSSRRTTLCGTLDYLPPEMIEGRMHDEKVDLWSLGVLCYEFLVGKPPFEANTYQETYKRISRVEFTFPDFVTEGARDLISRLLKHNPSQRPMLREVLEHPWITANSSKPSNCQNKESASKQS
UniProt P06493, whole entry: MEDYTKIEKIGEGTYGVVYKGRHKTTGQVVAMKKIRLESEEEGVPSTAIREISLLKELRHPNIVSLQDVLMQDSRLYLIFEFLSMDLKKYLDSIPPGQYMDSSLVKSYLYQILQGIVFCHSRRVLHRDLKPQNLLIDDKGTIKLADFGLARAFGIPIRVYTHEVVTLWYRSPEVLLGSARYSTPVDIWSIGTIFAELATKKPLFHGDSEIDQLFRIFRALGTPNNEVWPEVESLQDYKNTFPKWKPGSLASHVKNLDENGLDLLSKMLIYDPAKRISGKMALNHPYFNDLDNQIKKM
UniProt Q00526, whole entry: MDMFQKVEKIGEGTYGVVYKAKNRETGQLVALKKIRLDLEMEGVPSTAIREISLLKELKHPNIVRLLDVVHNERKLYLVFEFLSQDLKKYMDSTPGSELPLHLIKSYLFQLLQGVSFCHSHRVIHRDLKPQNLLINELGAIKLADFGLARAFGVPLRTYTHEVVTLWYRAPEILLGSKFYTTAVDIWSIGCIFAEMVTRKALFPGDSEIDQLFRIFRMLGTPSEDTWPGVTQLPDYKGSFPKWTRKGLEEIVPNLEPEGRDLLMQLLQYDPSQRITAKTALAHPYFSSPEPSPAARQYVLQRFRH
UniProt Q00535, whole entry: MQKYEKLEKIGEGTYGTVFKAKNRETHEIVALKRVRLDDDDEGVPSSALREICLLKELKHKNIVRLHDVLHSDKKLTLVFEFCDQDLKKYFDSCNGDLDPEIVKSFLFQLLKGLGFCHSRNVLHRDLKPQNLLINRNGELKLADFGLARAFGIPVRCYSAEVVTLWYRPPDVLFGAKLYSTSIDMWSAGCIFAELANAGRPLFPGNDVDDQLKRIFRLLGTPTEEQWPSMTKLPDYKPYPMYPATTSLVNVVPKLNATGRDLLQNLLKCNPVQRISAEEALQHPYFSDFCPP
UniProt Q00534, whole entry: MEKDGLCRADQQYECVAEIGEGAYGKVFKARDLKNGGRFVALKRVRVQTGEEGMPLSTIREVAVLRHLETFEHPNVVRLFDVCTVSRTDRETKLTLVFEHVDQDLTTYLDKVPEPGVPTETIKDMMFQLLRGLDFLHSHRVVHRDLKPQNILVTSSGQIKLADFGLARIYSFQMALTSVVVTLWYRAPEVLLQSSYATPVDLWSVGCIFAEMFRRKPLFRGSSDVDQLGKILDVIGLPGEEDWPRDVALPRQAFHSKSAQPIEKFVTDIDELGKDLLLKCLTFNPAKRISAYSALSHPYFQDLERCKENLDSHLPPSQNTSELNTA
UniProt P50613, whole entry: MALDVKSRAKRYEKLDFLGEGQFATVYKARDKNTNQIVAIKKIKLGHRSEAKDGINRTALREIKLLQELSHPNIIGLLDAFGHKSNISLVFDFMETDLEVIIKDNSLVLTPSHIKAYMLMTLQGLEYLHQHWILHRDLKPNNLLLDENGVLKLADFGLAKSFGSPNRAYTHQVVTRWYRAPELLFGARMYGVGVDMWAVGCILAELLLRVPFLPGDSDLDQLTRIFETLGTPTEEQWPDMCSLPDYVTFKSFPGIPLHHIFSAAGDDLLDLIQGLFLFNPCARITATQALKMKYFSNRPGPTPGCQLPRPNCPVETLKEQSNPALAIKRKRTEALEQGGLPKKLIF
UniProt P07947, whole entry: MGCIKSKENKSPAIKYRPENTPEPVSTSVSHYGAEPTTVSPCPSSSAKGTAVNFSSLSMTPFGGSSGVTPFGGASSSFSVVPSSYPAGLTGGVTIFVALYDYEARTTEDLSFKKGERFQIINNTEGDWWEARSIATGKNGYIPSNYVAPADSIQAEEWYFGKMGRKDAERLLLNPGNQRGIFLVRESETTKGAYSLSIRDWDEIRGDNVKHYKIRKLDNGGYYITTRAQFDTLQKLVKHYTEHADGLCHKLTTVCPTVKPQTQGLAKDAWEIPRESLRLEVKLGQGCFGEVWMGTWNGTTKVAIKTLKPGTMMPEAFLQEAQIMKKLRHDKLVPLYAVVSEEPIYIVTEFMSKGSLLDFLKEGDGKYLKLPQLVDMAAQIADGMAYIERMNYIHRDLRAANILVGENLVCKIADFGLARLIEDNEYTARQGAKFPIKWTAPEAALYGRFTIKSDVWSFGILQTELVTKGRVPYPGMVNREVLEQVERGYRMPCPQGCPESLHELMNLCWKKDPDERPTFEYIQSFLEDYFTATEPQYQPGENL
UniProt P14635, whole entry partner: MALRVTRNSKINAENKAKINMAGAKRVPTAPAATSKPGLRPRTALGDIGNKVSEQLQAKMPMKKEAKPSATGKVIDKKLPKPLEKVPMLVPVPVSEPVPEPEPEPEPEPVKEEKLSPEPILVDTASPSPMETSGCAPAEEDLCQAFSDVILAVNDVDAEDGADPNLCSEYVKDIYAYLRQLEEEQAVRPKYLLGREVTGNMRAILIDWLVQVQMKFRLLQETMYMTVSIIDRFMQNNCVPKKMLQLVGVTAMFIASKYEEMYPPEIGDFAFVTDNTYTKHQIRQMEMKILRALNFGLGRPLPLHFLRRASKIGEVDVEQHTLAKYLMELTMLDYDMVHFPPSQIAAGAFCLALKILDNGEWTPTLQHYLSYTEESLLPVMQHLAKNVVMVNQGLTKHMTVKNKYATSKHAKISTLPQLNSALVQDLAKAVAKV
UniProt P24864, whole entry partner: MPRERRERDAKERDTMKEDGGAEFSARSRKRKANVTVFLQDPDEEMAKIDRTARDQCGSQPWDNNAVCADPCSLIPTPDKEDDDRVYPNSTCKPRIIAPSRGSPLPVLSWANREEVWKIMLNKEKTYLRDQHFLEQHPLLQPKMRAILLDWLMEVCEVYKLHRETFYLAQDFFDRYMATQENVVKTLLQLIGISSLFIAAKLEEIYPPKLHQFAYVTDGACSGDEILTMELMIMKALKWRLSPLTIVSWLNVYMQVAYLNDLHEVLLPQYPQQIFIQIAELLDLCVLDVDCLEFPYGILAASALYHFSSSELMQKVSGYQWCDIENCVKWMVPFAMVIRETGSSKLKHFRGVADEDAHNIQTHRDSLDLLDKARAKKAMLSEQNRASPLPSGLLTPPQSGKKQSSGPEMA
UniProt P30281, whole entry partner: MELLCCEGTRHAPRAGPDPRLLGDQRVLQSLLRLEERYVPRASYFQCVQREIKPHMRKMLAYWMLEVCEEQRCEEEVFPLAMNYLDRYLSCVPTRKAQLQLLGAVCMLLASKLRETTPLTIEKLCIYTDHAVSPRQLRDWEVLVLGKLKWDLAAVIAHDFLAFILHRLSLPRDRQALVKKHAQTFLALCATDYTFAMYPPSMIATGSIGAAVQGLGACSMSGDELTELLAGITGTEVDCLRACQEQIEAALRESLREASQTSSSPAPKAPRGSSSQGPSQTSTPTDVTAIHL
UniProt Q15078, whole entry partner: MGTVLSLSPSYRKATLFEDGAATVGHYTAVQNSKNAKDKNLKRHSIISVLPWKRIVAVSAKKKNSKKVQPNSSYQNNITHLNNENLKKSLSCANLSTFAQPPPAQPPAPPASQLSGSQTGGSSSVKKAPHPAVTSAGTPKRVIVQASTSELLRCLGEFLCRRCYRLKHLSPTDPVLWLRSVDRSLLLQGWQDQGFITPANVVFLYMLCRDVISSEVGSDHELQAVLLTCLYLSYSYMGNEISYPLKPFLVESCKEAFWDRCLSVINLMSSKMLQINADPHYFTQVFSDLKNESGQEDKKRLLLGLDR
UniProt P51946, whole entry partner: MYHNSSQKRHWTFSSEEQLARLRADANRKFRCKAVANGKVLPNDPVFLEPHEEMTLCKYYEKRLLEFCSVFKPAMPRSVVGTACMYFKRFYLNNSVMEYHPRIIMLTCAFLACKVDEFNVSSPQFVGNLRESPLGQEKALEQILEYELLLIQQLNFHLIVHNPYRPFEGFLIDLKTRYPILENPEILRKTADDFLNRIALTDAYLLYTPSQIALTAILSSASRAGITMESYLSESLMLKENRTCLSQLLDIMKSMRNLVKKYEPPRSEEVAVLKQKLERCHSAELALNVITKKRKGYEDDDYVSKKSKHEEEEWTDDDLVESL
UniProt P51948, whole entry partner: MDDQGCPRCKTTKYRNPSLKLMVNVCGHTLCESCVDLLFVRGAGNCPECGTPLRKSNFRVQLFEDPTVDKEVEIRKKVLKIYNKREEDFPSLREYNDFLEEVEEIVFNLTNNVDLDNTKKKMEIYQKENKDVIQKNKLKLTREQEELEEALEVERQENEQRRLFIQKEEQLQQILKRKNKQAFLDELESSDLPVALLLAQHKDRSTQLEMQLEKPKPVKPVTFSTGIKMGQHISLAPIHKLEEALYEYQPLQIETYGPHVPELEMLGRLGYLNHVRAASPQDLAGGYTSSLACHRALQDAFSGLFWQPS

Tests used:
GSK-3α = GSK-3α (Homo sapiens, UniProt P49840); experiment: GSK-3 kinase assay (C1), GSK-3α; details: 1 μM ATP
Protocol: (§1) In vitro GSK-3 assays were performed at room temperature in a 100 μl reaction volume of 25 mM Tris (pH 7.4) containing 10 mM MgCl2.6H2O, 1 mM DTT, 0.1 mg/ml BSA, 5% glycerol, 5.7 ng/μl GSK-3β or 0.25 ng/μl GSK-3α, 5 μM biotinylated CREB peptide, 1 μM ATP, 0.85 μCi/ml ^33P-ATP and a suitable amount of a test compound. After one hour, the reaction was terminated by adding 70 μl of Stop mix (0.1 mM ATP, 5 mg/ml streptavidin coated PVT SPA beads, pH 11.0). The beads were allowed to settle overnight and the radioactivity attached to the beads was counted in a microtiter plate scintillation counter and compared with the results obtained in a control experiment (without the presence of a test compound) in order to determine the percentage of GSK-3 inhibition. The IC50 value, i.e. the concentration (M) of the test compound at which 50% of GSK-3 is inhibited, was calculated from the dose response curve obtained by performing the above-described GSK-3 assay in the presence of different amounts of the test compound. Score 1=pIC50 value<6, Score 2=pIC50 value from 6-7, Score 3=pIC50 value from 7-8, Score 4=pIC50 value>8.

GSK-3β = GSK-3β (Homo sapiens, UniProt P49841); experiment: GSK-3 kinase assay (C1), GSK-3β; details: 1 μM ATP
Protocol: as §1

Chang cells = experiment: GSK-3 cellular assay (C2): 14C-D-glucose incorporation into glycogen; details: increase in D-glucose incorporation into glycogen, test concentration of 10^−6 M
Protocol: Test compounds were tested for their ability to increase the incorporation of ^14C-D-glucose into glycogen in living cells. To do this, Chang cells (360,000 cells/well) were cultured in 0.5 ml of MEM Rega 3 medium supplemented with 10% fetal calf serum, 1% L-glutamine and 2% sodium carbonate. After 3 days, cells were washed with 0.5 ml of phosphate-buffered saline and overlayed with 1 ml of serum- and glucose-free DMEM medium. Then, 2 μl of compound in DMSO and 50 μl substrate (3 mM glucose and 0.5 μCi ^14C-D-glucose were added and the cultures were incubated for 90 min. Cells were then extracted with 0.5 ml of 20% KOH for 60 min at 37° C. and the cell lysates were transferred to 10 ml tubes containing 300 μl of 1 mg/ml glycogen as […]. Following the addition of 2 ml ethanol, total glycogen was precipitated overnight at −20° C. and the precipitates were recovered by centrifugation. Precipitates were then resuspended in 1 ml of water and transferred to scintillation counter vials. and the amount of ^14C-D-glucose incorporation into glycogen was measured by scintillation counting. Scores for the compounds according to the invention, were obtained at a test concentration of 10^−6 M. Score 1=10-30% increase, Score 2=30-60% increase, Score 3=60-80% increase and Score 4=>80% increase in D-glucose incorporation.

Aurora-A (h) = Aurora-A (h) (Homo sapiens, UniProt O14965); experiment: Kinase profiling C3.1 Aurora-A human; details: test concentration of 10^−6 M
Protocol: (§2) The in vitro inhibition of a panel of kinases was assessed using either the glass-fiber filter technology as described by Davies, S. P. et al., Biochem J. (2000), 351; p. 95-105. In the glass-fiber filter technology the activity of the kinase of interest is measured using an appropriate substrate that is incubated with the aforementioned kinase protein in the presence of (^33P) radiolabeled ATP. (^33P) Phosporylation of the substrate is subsequently measured as radioactivity bound on a glassfiber-filter.
(§3) All kinases are pre-diluted to a 10× working concentration prior to addition into the assay. The composition of the dilution buffer for each kinase is detailed below.
(§4) All substrates are dissolved and diluted to working stocks in de-ionised water, apart from histone H1 that is stored in 10× working stock in 20 mM MOPS pH 7.4.
(§5) In a final reaction volume of 25 μl, Aurora-A (h) (5-10 mU) is incubated with 8 mM MOPS pH 7.0, 0.2 mM EDTA, 200 μM LRRASLG (Kemptide), 10 mM MgAcetate and [γ-^33P-ATP] (specific activity approx. 500 cpm/pmol, concentration as required). The reaction is initiated by the addition of the MgATP mix. After incubation for 40 minutes at room temperature, the reaction is stopped by the addition of 5 μl of a 3% phosphoric acid solution. […]

CDK1/cyclinB (h) = CDK1/cyclinB (h) (Homo sapiens, UniProt P06493); experiment: Kinase profiling C3.2 CDK1/cyclinB human; details: test concentration of 10^−6 M
Protocol: as §2, §3, §4
as §5, with “CDK1/cyclinB” for “Aurora-A”, “0.1 mg/ml histone H1,” for “200 μM LRRASLG (Kemptide),”

CDK2/cyclinA (h) = CDK2/cyclinA (h) (Homo sapiens, UniProt P24941); experiment: Kinase profiling C3.3 CDK2/cyclinA human; details: test concentration of 10^−6 M
Protocol: as §2, §3, §4
as §5, with “CDK2/cyclinA” for “Aurora-A”, “0.1 mg/ml histone H1,” for “200 μM LRRASLG (Kemptide),”

CDK2/cyclinE (h) = CDK2/cyclinE (h) (Homo sapiens, UniProt P24941); experiment: Kinase profiling C3.4 CDK2/cyclinE human; details: test concentration of 10^−6 M
Protocol: as §2, §3, §4
as §5, with “CDK2/cyclinE” for “Aurora-A”, “0.1 mg/ml histone H1,” for “200 μM LRRASLG (Kemptide),”

CDK3/cyclinE (h) = CDK3/cyclinE (h) (Homo sapiens, UniProt Q00526); experiment: Kinase profiling C3.5 CDK3/cyclinE human; details: test concentration of 10^−6 M
Protocol: as §2, §3, §4
as §5, with “CDK3/cyclinE” for “Aurora-A”, “0.1 mg/ml histone H1,” for “200 μM LRRASLG (Kemptide),”

CDK5/p35 human = CDK5/p35 human (Homo sapiens, UniProt Q00535); experiment: Kinase profiling C3.6 CDK5/p35 human; details: CDK5/p35, test concentration of 10^−6 M
Protocol: as §2, §3, §4
as §5, with “CDK5/p35 human” for “Aurora-A (h)”, “0.1 mg/ml histone H1,” for “200 μM LRRASLG (Kemptide),”

CDK6/cyclinD3 human = CDK6/cyclinD3 human (Homo sapiens, UniProt Q00534); experiment: Kinase profiling C3.7 CDK6/cyclinD3 human; details: CDK6/cyclinD3, test concentration of 10^−6 M
Protocol: as §2, §3, §4
as §5, with “CDK6/cyclinD3 human” for “Aurora-A (h)”, “0.1 mg/ml histone H1,” for “200 μM LRRASLG (Kemptide),”

CDK7/cyclinH/MAT1 (h) = CDK7/cyclinH/MAT1 (h) (Homo sapiens, UniProt P50613); experiment: Kinase profiling C3.8 CDK7/cyclinH/MAT1 human; details: CDK7/cyclinH/MAT1, test concentration of 10^−6 M
Protocol: as §2, §3, §4
as §5, with “CDK7/cyclinH/MAT1” for “Aurora-A”, “500” for “200”, “peptide,” for “LRRASLG (Kemptide),”

cSRC (h) = cSRC (h) (Homo sapiens, UniProt P12931); experiment: Kinase profiling C3.9 cSRC human; details: test concentration of 10^−6 M
Protocol: as §2, §3, §4
as §5, with “cSRC” for “Aurora-A”, “250” for “200”, “KVEKIGEGTYGVVYK (Cdc2 peptide),” for “LRRASLG (Kemptide),”

Yes (h) = Yes (h) (Homo sapiens, UniProt P07947); experiment: Kinase profiling C3.10 Yes human; details: test concentration of 10^−6 M
Protocol: as §2, §3, §4
as §5, with “Yes” for “Aurora-A”, “0.1 mg/ml poly(Glu, Tyr) 4:1,” for “200 μM LRRASLG (Kemptide),”

Compound	C1 Score α (GSK-3α)	C1 Score β (GSK-3β)	C2 Score (Chang cells)	C3.1 score (Aurora-A (h))	C3.2 score (CDK1/cyclinB (h))	C3.3 score (CDK2/cyclinA (h))	C3.4 score (CDK2/cyclinE (h))	C3.5 score (CDK3/cyclinE (h))	C3.6 score (CDK5/p35 human)	C3.7 score (CDK6/cyclinD3 human)	C3.8 score (CDK7/cyclinH/MAT1 (h))	C3.9 score (cSRC (h))	C3.10 score (Yes (h))
O=C1NCCCNc2cccc(c2)-c2ncnc(n2)Nc2cccc(c2)CN[C@H]1Cc1ccccc1	3 (Score 3=pIC50 value from 7-8)	–	–	–	–	–	–	–	–	–	–	–	–
CN1CCCc2cc(ccn2)-c2ncnc(n2)Nc2cccc(c2)CCNC(=O)C1	4 (Score 4=pIC50 value>8)	4 (Score 4=pIC50 value>8)	4 (Score 4=>80% increase in D-glucose incorporation)	4 (Score 4 = >80% inhibition)	4 (Score 4 = >80% inhibition)	4 (Score 4 = >80% inhibition)	4 (Score 4 = >80% inhibition)	4 (Score 4 = >80% inhibition)	4 (Score 4 = >80% inhibition)	2 (Score 2 = 30-60% inhibition)	4 (Score 4 = >80% inhibition)	2 (Score 2 = 30-60% inhibition)	1 (Score 1 = 10-30% inhibition)
